Values of other authors, collected in patent publication US20210145846A1 (published 2021).

Chains of the proteins cited; added tags and fusions are not shown.
UniProt P03372, whole entry, species assumed: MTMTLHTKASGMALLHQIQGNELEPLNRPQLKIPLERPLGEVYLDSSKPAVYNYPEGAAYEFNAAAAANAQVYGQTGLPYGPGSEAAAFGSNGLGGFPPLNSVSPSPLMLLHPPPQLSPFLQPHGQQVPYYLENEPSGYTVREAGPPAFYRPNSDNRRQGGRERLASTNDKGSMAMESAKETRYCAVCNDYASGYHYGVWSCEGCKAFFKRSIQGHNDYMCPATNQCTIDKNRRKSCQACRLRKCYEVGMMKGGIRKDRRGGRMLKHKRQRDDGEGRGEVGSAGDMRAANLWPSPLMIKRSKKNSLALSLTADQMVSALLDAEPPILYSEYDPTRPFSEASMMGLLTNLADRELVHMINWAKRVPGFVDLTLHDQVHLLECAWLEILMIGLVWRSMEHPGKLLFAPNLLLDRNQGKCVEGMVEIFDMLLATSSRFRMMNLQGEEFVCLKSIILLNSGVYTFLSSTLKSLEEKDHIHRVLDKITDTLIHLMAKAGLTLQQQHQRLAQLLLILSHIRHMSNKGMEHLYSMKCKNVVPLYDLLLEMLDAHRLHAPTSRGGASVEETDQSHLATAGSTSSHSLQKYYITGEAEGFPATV

Biological target: estrogen receptor (ER) (Homo sapiens, UniProt P03372)
Details: competitive ER antagonist; cited from earlier work

C[C@]12CC[C@@H]3c4ccc(O)cc4C[C@@H](CCCCCCCCC[S+]([O-])CCCC(F)(F)C(F)(F)F)[C@H]3[C@@H]1CC[C@@H]2O (stereo partly drawn) [Fulvestrant, 7α-[9-[(4,4,5,5,5-pentafluoropentyl)sulfinyl]nonyl]-estra-1,3,5(10)-triene-3,17β-diol]
Affinity for estrogen receptor: comparable to that of estradiol
